Laboratory results reported in patent publication US20070270350A1, “Methods and Compositions for the Prevention and Treatment of Inflammatory Diseases or Conditions” (MUSC FOUNDATION FOR RESEARCH DEVELOPMENT, priority 2003, published 2007).

Test: Comparison of biology of IFN-β, GA and statin + GSNO (Table 2)
Source text: FIGS. 28-52 provide additional data that show the effectiveness of statins in treating a variety of inflammatory diseases such as multiple sclerosis, spinal cord injury, stroke, and kinic acid induced seizures. Additionally, Table 2 provides data concerning the treatment of multiple sclerosis (MS) with statins as compared to two other approved MS drugs. The known drugs that were used were IFN-β and glatiramer acetate (GA) and their effects were compared with the combination of a statin+GSNO in a stroke model.

B1: IFN-β: approved MS drug used for comparison (protein, UniProt P01574 22-187, looked up)
Interferon beta: MSYNLLGFLQRSSNFQCQKLLWQLNGRLEYCLKDRMNFDIPEEIKQLQQFQKEDAALTIYEMLQNIFAIFRQDSSSTGWNETIVENLLANVYHQINHLKTVLEEKLEKEDFTRGKLMSSLHLKRYYGRILHYLKAKEYSHCAWTIVRVEILRNFYFINRLTGYLRN
- Decrease expression of adhesion molecules: Yes
- Decrease inflammatory cytokines: Yes
- Decreased expression of MHCII: Yes
- Excludes leukocytes from entering CNS: Yes
- Inhibition of MMPs: Yes
- Inhibition of chemokine expression: Yes
- Inhibition of clonal expression of co-stimulatory molecules: Yes
- Interferences with T-cell activation: Yes
- Leukocyte trafficking across the blood brain barrier (BBB): Yes
- Neuroprotection: Not clear
- Protection of BBB: Yes
- Reduced level of co-stimulatory molecules: Yes
- Th1 to Th2 deviation: Yes
